{
  "sequences": {"note": "Sequences of proteins named here, by UniProt entry; tags and fusion partners are left off. Residues count along the entry.", "UniProt P00533, 25-1210": "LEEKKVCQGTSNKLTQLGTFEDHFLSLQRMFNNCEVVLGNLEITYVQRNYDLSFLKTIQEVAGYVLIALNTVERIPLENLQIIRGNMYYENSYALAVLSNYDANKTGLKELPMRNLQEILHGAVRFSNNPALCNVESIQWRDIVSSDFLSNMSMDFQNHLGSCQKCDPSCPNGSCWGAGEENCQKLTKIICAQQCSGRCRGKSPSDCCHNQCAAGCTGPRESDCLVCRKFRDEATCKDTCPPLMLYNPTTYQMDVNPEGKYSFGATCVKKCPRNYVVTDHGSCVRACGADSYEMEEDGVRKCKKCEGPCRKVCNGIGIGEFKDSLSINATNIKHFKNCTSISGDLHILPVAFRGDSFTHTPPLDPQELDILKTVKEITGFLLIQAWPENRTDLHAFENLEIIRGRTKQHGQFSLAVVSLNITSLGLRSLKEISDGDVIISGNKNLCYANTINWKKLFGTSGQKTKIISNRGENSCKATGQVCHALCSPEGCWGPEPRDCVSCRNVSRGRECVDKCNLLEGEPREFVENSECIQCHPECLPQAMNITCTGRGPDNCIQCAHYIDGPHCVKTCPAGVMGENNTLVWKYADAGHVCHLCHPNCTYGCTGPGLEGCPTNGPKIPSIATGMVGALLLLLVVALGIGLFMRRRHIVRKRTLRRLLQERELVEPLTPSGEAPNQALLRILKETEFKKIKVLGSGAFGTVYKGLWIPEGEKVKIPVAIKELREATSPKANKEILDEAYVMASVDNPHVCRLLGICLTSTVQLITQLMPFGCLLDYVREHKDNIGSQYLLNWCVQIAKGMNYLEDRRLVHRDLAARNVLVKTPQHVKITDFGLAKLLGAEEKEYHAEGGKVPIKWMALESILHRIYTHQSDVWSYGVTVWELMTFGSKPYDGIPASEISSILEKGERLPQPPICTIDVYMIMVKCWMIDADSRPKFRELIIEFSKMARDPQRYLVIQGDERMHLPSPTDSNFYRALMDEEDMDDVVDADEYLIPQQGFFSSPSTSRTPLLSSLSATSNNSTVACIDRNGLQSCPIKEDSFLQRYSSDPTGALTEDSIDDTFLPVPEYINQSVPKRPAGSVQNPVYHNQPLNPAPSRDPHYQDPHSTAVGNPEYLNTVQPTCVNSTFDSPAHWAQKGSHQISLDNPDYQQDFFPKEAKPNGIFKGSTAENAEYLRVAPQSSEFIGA"},
  "source": "patent US11578074B2",
  "about": "“Nitrogenous heterocyclic compound, preparation method, intermediate, composition, and application” (SHANGHAI PHARMACEUTICALS HOLDING CO., LTD., priority 2017, dated 2023)",
  "target": "EGFR kinase (Homo sapiens, UniProt P00533)",
  "assay": "EGFR/ErbB2 enzymatic experiment (HTRF kinEASE-TK), EGFR",
  "data": [
    {"compound": "CCOc1cc2ncc(C#N)c(Nc3ccc(OCc4ccccn4)c(Cl)c3)c2cc1NC(=O)/C=C/[C@H]1CCCN1C", "note": "[drawing 239, reference compound]", "values": [
      {"measurement": "IC50", "result": 0.26, "unit": "nM"}
    ]}
  ]
}
